From ChEMBL document CHEMBL1155538 (Bioorg Med Chem Lett, 2010)

The chains behind the UniProt entries cited, without tags or fusion partners.
UniProt P31645, whole entry: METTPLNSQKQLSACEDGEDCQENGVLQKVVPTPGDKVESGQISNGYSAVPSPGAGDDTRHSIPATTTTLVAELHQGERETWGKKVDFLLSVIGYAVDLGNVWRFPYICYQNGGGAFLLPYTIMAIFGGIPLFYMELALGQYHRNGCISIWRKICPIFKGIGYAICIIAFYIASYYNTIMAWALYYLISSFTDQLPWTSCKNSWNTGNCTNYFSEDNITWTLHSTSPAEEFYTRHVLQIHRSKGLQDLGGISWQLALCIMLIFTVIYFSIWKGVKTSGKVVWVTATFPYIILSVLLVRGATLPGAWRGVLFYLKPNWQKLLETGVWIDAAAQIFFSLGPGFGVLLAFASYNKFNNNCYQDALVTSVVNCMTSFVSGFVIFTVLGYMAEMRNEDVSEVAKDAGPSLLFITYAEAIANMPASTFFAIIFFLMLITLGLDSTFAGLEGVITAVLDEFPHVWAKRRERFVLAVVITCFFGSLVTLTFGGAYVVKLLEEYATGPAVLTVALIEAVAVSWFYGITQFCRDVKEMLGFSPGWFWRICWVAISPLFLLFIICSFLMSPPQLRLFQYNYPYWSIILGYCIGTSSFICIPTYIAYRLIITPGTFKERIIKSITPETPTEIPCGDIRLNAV
UniProt Q01959, whole entry: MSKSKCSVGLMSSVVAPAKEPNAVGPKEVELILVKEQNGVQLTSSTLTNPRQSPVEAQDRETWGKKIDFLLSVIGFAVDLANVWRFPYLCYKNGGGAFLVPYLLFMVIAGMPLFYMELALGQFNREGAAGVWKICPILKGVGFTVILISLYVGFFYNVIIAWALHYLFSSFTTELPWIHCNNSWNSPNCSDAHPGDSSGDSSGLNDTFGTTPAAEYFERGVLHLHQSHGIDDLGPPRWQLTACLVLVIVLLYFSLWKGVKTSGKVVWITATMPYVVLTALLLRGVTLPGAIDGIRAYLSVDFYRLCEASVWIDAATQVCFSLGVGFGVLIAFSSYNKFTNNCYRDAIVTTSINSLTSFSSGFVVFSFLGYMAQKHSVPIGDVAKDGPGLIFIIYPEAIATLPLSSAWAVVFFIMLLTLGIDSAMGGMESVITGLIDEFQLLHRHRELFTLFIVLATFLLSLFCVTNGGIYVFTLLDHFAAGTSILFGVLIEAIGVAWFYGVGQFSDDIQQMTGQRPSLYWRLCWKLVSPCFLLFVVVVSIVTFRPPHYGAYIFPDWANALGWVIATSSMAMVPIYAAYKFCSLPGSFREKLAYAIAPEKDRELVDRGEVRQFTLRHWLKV
UniProt P23975, whole entry: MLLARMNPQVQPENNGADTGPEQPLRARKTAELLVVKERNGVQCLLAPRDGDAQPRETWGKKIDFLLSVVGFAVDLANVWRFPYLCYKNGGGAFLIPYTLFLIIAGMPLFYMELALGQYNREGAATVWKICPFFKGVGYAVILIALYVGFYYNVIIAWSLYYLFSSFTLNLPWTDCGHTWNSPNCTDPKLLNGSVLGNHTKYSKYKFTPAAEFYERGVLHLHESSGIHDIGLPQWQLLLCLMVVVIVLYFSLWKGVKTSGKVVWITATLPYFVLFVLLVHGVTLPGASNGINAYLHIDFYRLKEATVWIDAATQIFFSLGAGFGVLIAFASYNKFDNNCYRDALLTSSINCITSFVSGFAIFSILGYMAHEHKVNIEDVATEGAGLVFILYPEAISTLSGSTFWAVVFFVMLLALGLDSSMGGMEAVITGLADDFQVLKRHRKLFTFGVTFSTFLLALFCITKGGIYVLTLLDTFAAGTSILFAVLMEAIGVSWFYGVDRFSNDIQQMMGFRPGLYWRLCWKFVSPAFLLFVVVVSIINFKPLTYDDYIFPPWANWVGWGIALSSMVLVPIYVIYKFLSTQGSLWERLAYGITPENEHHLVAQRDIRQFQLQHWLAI

Tests used:
Conditions in all cases: hek293
[1] = target: Sodium-dependent serotonin transporter (Homo sapiens, UniProt P31645)
[2] = target: Sodium-dependent dopamine transporter (Homo sapiens, UniProt Q01959)
[3] = target: Sodium-dependent noradrenaline transporter (Homo sapiens, UniProt P23975)

| SMILES | Ki [1] [nM] | Ki [2] [nM] | Ki [3] [nM] |
| --- | --- | --- | --- |
| Fc1cccc(OC(F)F)c1CC(c1ccccc1)N1CCNCC1 (stereo unspecified) | 19 | > 3160 | 58 |
| COc1cccc(F)c1CC(c1ccccc1)N1CCNCC1 (stereo unspecified) | 9 | 2370 | 27 |
